Consider 71 compounds from PubChem BioAssay AID1347071 (National Center for Advancing Translational Sciences (NCATS), 2019).

The list shows a part of the results, in another mix than the full data. Some structures show a salt or complex split into parts, the way the source records it. Calls of active or inactive are those of the source. The call rests on the fitted dose curve; in most records, active means well fitted activation curve with a large enough effect; inconclusive means small, poorly fitted or top-dose-only effect; inactive means no such curve, though single readings can be large or run the other way.

The nature of this assay: qHTS for compounds that reverse cellular toxicity of Amyloid beta (A-beta) peptide in yeast: Primary Screen. Further: nearly all actives have a fitted effect of over 55% in size. Conditions: yeast expressing A-beta42, growth rescue, OD600, 48 h, 0% DMSO, 100% iron-clioquinol control; at 46.1 µM (top of the series). The text has this:
The A-beta peptide is produced by the processing of the amyloid precursor protein (APP) by two proteases, beta and gamma secretases. […] A-beta42 is regarded as the most amyloidogenic form due to its hydrophobicity; however, precisely how A-beta42 induces neurotoxicity is unclear. To understand further this biology and its potential therapeutic implications for human neurodegenerative disease, a quantitative high-throughput screen for compounds that reverse the cellular toxicity of the A-beta peptide was developed. A yeast based screen was used because it recapitulates the salient feature of protein mis-folding disorder accurately. This cell-based phenotypic screen provides a significant, unbiased advantage by letting the compounds and models inform us which proteins or pathways are most relevant. The ideal chemical candidates would therefore have activity in both our primary yeast and secondary neuronal toxicity assays, as well as in mouse models. They will be valuable tools for dissecting diverse protein homeostasis pathologies and could potentially become the focus for future pre-clinical development. For this luminescence assay, inhibition of A-beta rescues the toxic effect in the yeast cell, resulting in increase of signals and the desired phenotype of "Activator". This screen is run against the Molecular Libraries Small Molecule Repository (MLSMR) and the NCGC Sytravon Library Collection.
NIH Chemical Genomics Center [NCGC]
NIH Molecular Libraries Probe Centers Network [MLPCN]
Assay Submitter (PI): Susan Lindquist, Whitehead Institute, Massachusetts Institute of Technology
[1] Vassar R,et al (1999). Beta-secretase cleavage of Alzheimer's amyloid precursor protein by the transmembrane aspartic protease BACE. Science. 286: 735-741.
[2] Yan R, et al (1999). Membrane-anchored aspartyl protease with Alzheimer's disease beta-secretase activity. Nature. 402: 533-536.
Two and a half microliter / well of yeast growth medium were dispensed in a 1536 assay plate. Compounds were pinned using the Kalypsys robotic system followed by addition of 2.5 uL / well yeast solution. The assay plates were incubated at 30 C. After 48 hr, the absorbance signal at 600 nm was obtained using the PerkinElmer ViewLux plate reader to assess yeast growth. The data was normalized to the positive control of an equimolar mixture of ferric chloride (FeCl3) and clioquinol and to the negative control DMSO.
For orientation: In qHTS, concentration-response curves come from the screen itself.
`CCCCOc1ccc(C(=O)NCC2(N3CCOCC3)CCCCC2)cc1`: the growth rescue was inactive: 5.08%. The result for `CCCCn1nnnc1C(c1cc2ccccc2o1)N1CCC(n2c(=O)[nH]c3ccccc32)CC1` (stereo unspecified) reads inactive: 12.6%; that for `O=P1(N(CCCl)CCCl)SCCCS1`, inactive: 0.805%; that for `O=C(NCC1(N2CCCCC2)CCCCC1)c1ccc(F)cc1`, inactive: 12.1%. Take `COc1ccccc1C(=O)NCC1(N2CCOCC2)CCCCC1`: the growth rescue was inactive: -4.46%. The value for `CCOc1ccc(C)cc1CN(CCCl)CCCl` was inactive: -2.11%; that for `O=C1CCN(Cc2ccccc2)CC1` was inactive: -13.5%; that for `O=C(NCC1(N2CCOCC2)CCCCC1)c1ccc(Cl)cc1` was inactive: -13%.

For the compound `CC(C)(C)n1nnnc1C(c1ccccc1)N1CCC(n2c(=O)[nH]c3ccccc32)CC1` (stereo unspecified), the growth rescue was inactive: -0.678%. The result for `O=c1[nH]c2ccccc2n1C1CCN(C(c2cccc3ccccc23)c2nnnn2C2CCCC2)CC1` (stereo unspecified) reads inactive: 8.05%; that for `CCOC(=O)N1CCC(Nc2cccc(C)c2)CC1`, inactive: 0%.

Turning to `COc1cc(C(=O)NCC2(N(C)C)CCCCC2)ccc1OC(F)F`, the growth rescue was inactive: -43.8%. The result for `O=c1[nH]c2ccccc2n1C1CCN(C(c2ccccc2)c2nnnn2C2CCCCC2)CC1` (stereo unspecified) reads inactive: 9.09%; that for `Cc1cccc(NC2(C#N)CCN(Cc3ccccc3)CC2)c1`, inactive: -6.07%; that for `CSc1ccccc1C(=O)NCC1(N2CCCCC2)CCCCC1`, inactive: 3.1%. The result for `O=C(NCC1(N2CCCCC2)CCCCC1)c1cccs1` reads inactive: -0.346%; that for `CCCCn1nnnc1C(CC)N1CCC(n2c(=O)[nH]c3ccccc32)CC1` (stereo unspecified), inactive: 8.45%; that for `CCCCn1nnnc1C(c1cccs1)N1CCC(n2c(=O)[nH]c3ccccc32)CC1` (stereo unspecified), inactive: -13%. The value for `O=C(NCC1(N2CCCCC2)CCCCC1)c1ccc(=O)[nH]c1` was inactive: 0.71%; that for `CC(C)(C)OC(=O)N1CCC(N(C(=O)c2ccccc2)c2ccc(F)cc2)CC1` was inactive: 0.367%; that for `COc1ccc(C(=O)NCC2(N3CCCCC3)CCCCC2)c(OC)c1OC` was inactive: -0.0597%. `CCC(c1nnnn1C1CCCC1)N1CCC(n2c(=O)[nH]c3ccccc32)CC1` (stereo unspecified): the growth rescue was inactive: -0.536%.

Regarding `COc1ccc(C(=O)NCC2(N3CCCCC3)CCCCC2)cc1`, the growth rescue is inactive: -19.9%. The result for `CCCCn1nnnc1C(c1ccc(OC)cc1)N1CCC(n2c(=O)[nH]c3ccccc32)CC1` (stereo unspecified) reads inactive: -21.8%; that for `CCOC(=O)N1CCC(Nc2ccc(OC)cc2)CC1`, inactive: -15.8%.

For `COc1ccc(Cl)cc1C(=O)NCC1(N2CCOCC2)CCCCC1`, the growth rescue is inactive: 2.24%.

In the case of `O=C1C(O)=C([N+](=O)[O-])C(=O)C(O)=C1[N+](=O)[O-]`, the growth rescue is inactive: 2.09%.

`O=C(NCC1(N2CCCCC2)CCCCC1)c1ccc(Cl)s1`: the growth rescue is inactive: 12.5%. As for `N#CC1(Nc2ccccc2)CCN(Cc2ccccc2)CC1`, the growth rescue is inactive: -1.54%.

For `O=c1[nH]c2ccccc2n1C1CCN(C(c2cc3ccccc3o2)c2nnnn2C2CCCCC2)CC1` (stereo unspecified), the growth rescue was inactive: 17.4%.

On to `O=C(OC1CN2CCC1CC2)C1c2ccccc2Oc2ccccc21` (stereo unspecified), for which the growth rescue was inactive: 24.3%. The result for `O=C(NCC1(N2CCOCC2)CCCCC1)c1cc2ccccc2o1` reads inactive: 3.42%.

As for `Cc1cc(C)cc(N(C(=O)c2ccccc2)C2CCN(C(=O)OC(C)(C)C)CC2)c1`, the growth rescue was inactive: 13.5%. The result for `O=C(NCC1(N2CCCCC2)CCCCC1)c1ccc(Cl)nc1` reads inactive: 1.13%; that for `O=c1[nH]c2ccccc2n1C1CCN(C(c2ccccc2OC(F)(F)F)c2nnnn2C2CCCCC2)CC1` (stereo unspecified), inactive: 9.33%.

With `CCCCn1nnnc1C(c1ccnc2ccccc12)N1CCC(n2c(=O)[nH]c3ccccc32)CC1` (stereo unspecified), the growth rescue was inactive: -11.3%. As to `O=C(NCC1(N2CCOCC2)CCCCC1)c1cc(F)c(F)cc1Cl`, the growth rescue is inactive: -7.29%. The result for `CCC(c1nnnn1C(C)(C)C)N1CCC(n2c(=O)[nH]c3ccccc32)CC1` (stereo unspecified) reads inactive: -16.8%; that for `COc1cc(OC)c(C(=O)NCC2(N(C)C)CCCCC2)cc1OC`, inactive: 11.2%. The value for `CN(C)c1cccc(C(=O)NCC2(N3CCCCC3)CCCCC2)c1` was inactive: -0.364%; that for `O=[N+]([O-])c1cc([N+](=O)[O-])c(OC2CCCCC2O)c([N+](=O)[O-])c1` (stereo unspecified) was inactive: 5.53%. The value for `COc1ccc(CN(CCCl)CCCl)cc1Cl` was inactive: 14.5%; that for `CCCCn1nnnc1C(c1ccccc1OC(F)(F)F)N1CCC(n2c(=O)[nH]c3ccccc32)CC1` (stereo unspecified) was inactive: -10%. Regarding `CC(C)c1ccc(NC2CCN(C(=O)OC(C)(C)C)CC2)cc1`, the growth rescue was inactive: 19%. The value for `O=C(NCC1(N2CCOCC2)CCCCC1)c1ccccc1Br` was inactive: -5.87%; that for `CCCOc1ccc(C(=O)NCC2(N(C)C)CCCCC2)cc1OC` was inactive: -13.4%; that for `CCCCOc1ccccc1C(=O)NCC1(N2CCOCC2)CCCCC1` was inactive: -3.81%. The value for `Cc1ccc(C(=O)NCC2(N(C)C)CCCCC2)o1` was inactive: -3.03%. The value for `COc1ccc(C(c2nnnn2C2CCCC2)N2CCC(n3c(=O)[nH]c4ccccc43)CC2)cc1` (stereo unspecified) was inactive: 7.28%; that for `O=[N+]([O-])c1cc([N+](=O)[O-])c(Nc2ccc(Cl)cc2)c([N+](=O)[O-])c1` was inactive: -77.6%.

As to `CN1CCC(Nc2cccc(F)c2)CC1`, the growth rescue was inactive: 23.6%. The result for `COc1ccc2c(c1O)-c1c(O)c(OC)cc3c1[C@H](C2)[N+](C)(C)CC3.O=[N+]([O-])c1cc([N+](=O)[O-])c([O-])c([N+](=O)[O-])c1[O-]` reads inactive: -7.46%; that for `O=C(NCC1(N2CCCCC2)CCCCC1)c1cncc(Br)c1`, inactive: -3.35%. Regarding `O=C(OC1CN2CCC1CC2)c1ccc([N+](=O)[O-])cc1` (stereo unspecified), the growth rescue is inactive: 3.8%. The result for `O=C(NCC1(N2CCCCC2)CCCCC1)c1cccc([N+](=O)[O-])c1` reads inactive: -0.0136%. The value for `CCOc1ccc(C(=O)NCC2(N3CCOCC3)CCCCC2)cc1` was inactive: -8.93%; that for `CSc1ccc(C(=O)NCC2(N3CCOCC3)CCCCC2)cc1` was inactive: -8.56%. Regarding `O=c1[nH]c2ccccc2n1C1CCN(C(c2ccccc2OC(F)(F)F)c2nnnn2C2CCCC2)CC1` (stereo unspecified), the growth rescue was inactive: 2.85%. The value for `N#CC1(Nc2ccccc2)CCN(CCc2ccccc2)CC1` was inactive: 6.83%; that for `CCN1CCC(Nc2ccc(Cl)cc2)CC1` was inactive: -2.26%.

For the compound `O=C(NCC1(N2CCCCC2)CCCCC1)c1ccc(OC(F)F)cc1`, the growth rescue was inactive: 9.08%. The result for `CC(C)(C)n1nnnc1C(c1ccccc1OC(F)(F)F)N1CCC(n2c(=O)[nH]c3ccccc32)CC1` (stereo unspecified) reads inactive: -1.04%; that for `CC(C)c1ccc(C(=O)NCC2(N3CCOCC3)CCCCC2)cc1`, inactive: 2.83%. The value for `COc1ccc(NC2CCN(C(=O)OC(C)(C)C)CC2)cc1` was inactive: 8%; that for `CN1CCN(CCOC(=O)C(O)(c2ccccc2)c2ccccc2)CC1` was inactive: -7.78%; that for `CCCCn1nnnc1C(c1cccc2ccccc12)N1CCC(n2c(=O)[nH]c3ccccc32)CC1` (stereo unspecified) was inactive: 5.74%.

In the case of `O=C(NCC1(N2CCOCC2)CCCCC1)c1cc(=O)[nH]c2ccccc12`, the growth rescue is inactive: 3.8%. The result for `COc1cc(C(=O)NCC2(N3CCCCC3)CCCCC2)ccc1OC(F)F` reads inactive: -6.14%. For the compound `O=C(NCC1(N2CCCCC2)CCCCC1)c1cccc(C(F)(F)F)c1`, the growth rescue was inactive: 11.7%. The result for `CCCOc1cccc(C(=O)NCC2(N3CCOCC3)CCCCC2)c1` reads inactive: -14.7%; that for `O=[N+]([O-])c1cc([N+](=O)[O-])c(NCC2CCS(=O)(=O)C2)c([N+](=O)[O-])c1` (stereo unspecified), inactive: -5.69%.
